Rows were chosen to be rich in hits. Some 0.39% of all compounds tested hit in one or more screens of this group.
MmCpn inh – inhibitors of Methanococcus maripaludis chaperonin TRiC (MmCpn). purified Mm-Cpn ATPase, ADP Transcreener TR-FRET. Potency, µM (titrated, usually from 76.9 µM), for the others: top-dose activity, negative = inhibition, actives largely listed as inhibitors. actives 0.031% (n = 330,000); active = well fitted inhibition curve with a large enough effect; inconclusive = small, poorly fitted or top-dose-only effect; note: potency is the fitted concentration of half-maximal effect; % is set by controls: 0 for no effect and ±100 for the full control effect; nearly all actives have a fitted effect of over 80% in size
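Eu-cryptate anti-ADP/ADP-d2 competition gives a ratio inversely related to ADP. Enzyme at 25 nM was pre-exposed to compound for 10 min, then given 10 uM ATP for 30 min, 37°C throughout.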
Rango dissoc inh – inhibition of RanGTP-driven Rango-importin beta dissociation; O95149+P62826; Biochemical FRET Rango-importin beta, RanGTP-induced dissociation; Potency, µM (series often up to 46.1 µM), for inactives: top-dose activity change, negative = inhibition; actives 0.071% (n = 340,000); AID 540253; note: potency is the fitted concentration of half-maximal effect; % of control where 0% means no effect; nearly all actives have a fitted effect of over 45% in size
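Quantitative HTS using a FRET biosensor: 0.1 uM Rango, 0.25 uM importin beta, 0.6 uM Ran, 2 mM GTP, 0.2 uM RCC1 final, PBS with DTT, Tween-20 and BSA. Post-read taken 45 min after Ran addition.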
CCT chaperon mod – changes cytosolic chaperonin activity. purified chaperonin ATPase assay, HTRF ADP detection, 30 min. actives 0.3% (n = 360,000). activity change, % (concentration not given with the values), hits read low. AID 651819; in the data active = activity change below about -30%; note: % is set by controls: 0 for no effect and ±100 for the full control effect
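We incubate TRiC, 40 or 20 nM final, with library compounds at 76 uM and 10 uM ATP for 30 min at 37 °C. ADP formed is detected with Transcreener HTRF reagents after 30 min at room temperature.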
Rango complex inh – Rango-importin beta binding inhibition; Q14974; Rango CFP/YFP FRET sensor + importin beta, 45 min; Potency, µM (titrated, usually from 92.2 µM), for inactives: at the top dose inhibition of complex formation; actives 0.031% (n = 340,000);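 note: potency is the fitted concentration of half-maximal effect; 0% = DMSO wells and 100% = buffer wells lacking importin beta; nearly all actives have a fitted effect of over 15% in size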
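FRET biosensor Rango (snurportin 1 IBB between N-terminal EYFP and C-terminal Cerulean), 50 nM in PBS/1 mM DTT/0.02% Tween-20/0.1% BSA, preincubated 5 min RT with compound; 0.125 microM importin beta added, 45 min RT, CFP/YFP FRET ratio read.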
Starred values were filed as active, the others as inactive; ? = inconclusive; nt = no result; [ ] = remark or other dose. Unless noted, calls come from the whole dose curve.

SMILES | MmCpn inh | Rango dissoc inh | CCT chaperon mod | Rango complex inh
CNC(=O)Cn1nc(-c2ccc(Cl)cc2)c2ccccc2c1=O | 0.8% | 0.7% | 1.6 | 1.8%
CCOc1ccc(C(=O)OCc2nnc(-c3cccs3)o2)cc1OC | -2.2% | 9.5% | -72.2* | 1.2%
O=C(OCc1nnc(-c2cccs2)o1)c1cccnc1Cl | -0.9% | 15.1% | 0.6 | 0.1%
Cc1noc(C)c1-c1ccc2ncnc(NCc3cccc(-c4ccccc4)c3)c2c1 | -10.4% | nt | nt | nt
CCc1ccc(C2C(C#N)=C(N)SC(N)=C2C#N)cc1 | -19.2% | ? | 0.3 | ?
CCc1ccc(C2C(C#N)=C(N)SC(N)=C2C#N)s1 | 35.5µM* | 10.3µM* | -7.9 | ?
Cc1cc(C)n(-c2nc3ccccc3n3cnnc23)n1 | -1.1% | 4.3% | 0.7 | 4.6%
CCN(CC)c1nc2ccccc2nc1-n1nc(C)cc1C | -5.3% | 14.6µM* | -1.8 | ?
Cn1c(=S)[nH]c2scc(-c3cccs3)c2c1=O | ? | -12.3% | -36.5* | 1.1%
C=CCn1c(=S)[nH]c2scc(-c3cccs3)c2c1=O | 50.1µM* | 1.9% | 1.3 | -1.4%
C=CCn1c(=S)[nH]c2ccccc2c1=O | -1.0% | -5.7% | 0.9 | 3.1%
O=C1CN(S(=O)(=O)c2ccc([N+](=O)[O-])cc2)CC(=O)N1 | -1.9% | 2.5% | -51.8* | 2.2%
COCCN(Cc1nnc(-c2cccs2)o1)C(=O)CN1C(=O)NC2(CCCCC2)C1=O | 2.4% | 2.9% | -3.7 | 3.9%
CCOc1ccc(CNC(=O)CCC(=O)N2Cc3ccccc3Oc3ncccc32)cc1 | 2.4% | 2.4% | -1.8 | -1.4%
COc1ccc(C(=O)Nc2ccc(S(=O)(=O)Nc3onc(C)c3C)cc2)c(OC)c1 | 2.8% | 18.8% | -35.2* | -0.9%
CC(C)c1c(C(=O)N/N=C/c2ccc(C(F)(F)F)cc2)nnn1-c1nonc1N | 2.7% | 14.6% | -0.6 | -1.9%
CN(C)S(=O)(=O)N1CCC(Oc2cccc(C(=O)NC3CCOC3)c2)CC1 (stereo unspecified) | -9.3% | -7.3% | 1.6 | -4.0%
O=C(O)c1cnc(-c2ccccc2)nc1C(F)(F)F | 0.6% | 0.9% | -50.7* | 0.3%
Cc1cc(C)cc(NS(=O)(=O)c2ccc3oc(=O)ccc3c2)c1 | 2.1% | -1.3% | -30.7* | -0.6%
Cc1ccc(C)c(NS(=O)(=O)c2ccc3oc(=O)ccc3c2)c1 | -2.1% | -15.1% | 0.6 | -2.9%
Nc1nc(SCC(=O)Nc2cc(-c3ccccc3)nn2-c2ccccc2)n[nH]1 | -0.5% | 14.7% | -96.7* | -1.5%
Cc1ccc(-c2cc(NC(=O)CSc3n[nH]c(N)n3)n(-c3ccccc3)n2)cc1 | 0.6% | 19.9% | -3.2 | -2.4%
CCCCc1ccc(NC(=S)N2CCCC2)cc1 | -3.1% | -17.1% | 0.6 | 2.8%
CCc1ccc(-c2nnn(CC(=O)N(C3CCCC3)C3CCS(=O)(=O)C3)n2)cc1 (stereo unspecified) | -3.0% | ? | -0.7 | 4.9%
CCn1nnnc1SCC(=O)N1CCN(c2ccccc2)CC1 | -0.9% | -7.8% | -1.2 | -2.0%
O=C(CSc1nnnn1Cc1ccccc1)N1CCN(c2ccccc2)CC1 | -1.2% | 4.7% | -37.4* | 5.1%
O=C(CSc1nncn1-c1ccccc1)N1CCCC1 | 0.9% | 8.7% | -1.0 | 2.9%
Cn1nccc1C(=O)Nc1ccc2c(c1)OCO2 | -1.8% | 3.5% | -54.8* | 9.8%
Cc1ccc(CSCC(=O)N(C)CC(=O)Nc2ccccc2C(F)(F)F)cc1 | 0.9% | 22.1% | -1.0 | -2.8%
O=C(CCSC1=NCCCN1)c1ccc(F)cc1 | nt | -4.9% | -1.1 | 0.0%
CCCCNc1c(-c2ccc(OC)c(SC3CCCCC3)c2)nc2ccc(C)cn12 | -1.8% | ? | -1.0 | ?
CCC(C)Sc1cc(-c2nc3ccc(C)cn3c2NCc2ccccc2)ccc1OC (stereo unspecified) | nt | 14.6µM* | -1.0 | ?
COc1ccc(-c2nc3ccccn3c2NCc2ccc3c(c2)OCO3)cc1 | -10.7% | ? | -0.6 | -16.3%
CCCCNc1c(-c2ccc(SC3CCCCC3)c(OC)c2)nc2ccc(C)cn12 | 0.7% | 7.31µM* | -1.0 | ?
COc1ccc(-c2cc(-c3nc4ccccn4c3NCc3ccccc3)ccc2OC)cc1 | -7.3% | 25.9µM* | -0.6 | ?
FC(F)(F)Oc1ccccc1C(c1nnnn1Cc1ccccc1)N1CCN(C/C=C/c2ccccc2)CC1 (stereo unspecified) | nt | nt | 0.1 | nt
Cc1noc(C)c1COc1ccccc1C(=O)N1CCN(S(=O)(=O)c2cccc(Cl)c2)CC1 | 0.4% | 21.8% | -0.7 | 3.4%
Cc1noc(C)c1COc1ccccc1C(=O)N1CCN(S(=O)(=O)c2cccc([N+](=O)[O-])c2)CC1 | -0.5% | -2.6% | -56.9* | -0.1%
COc1ccccc1CNC(=O)COC(=O)c1cccc(-n2cnnn2)c1 | -0.4% | 0.9% | -1.9 | -0.9%
O=C(CN(CC1CCCO1)C(=O)CNS(=O)(=O)c1ccc(Cl)cc1)NCc1ccco1 (stereo unspecified) | -0.7% | -2.6% | -46.3* | 3.0%

Just MmCpn inh and CCT chaperon mod, for some of the entries so far:
Molecule | MmCpn inh | CCT chaperon mod
CCC(C)Sc1cc(-c2nc3ccc(C)cn3c2NCc2ccccc2)ccc1OC (stereo unspecified) | nt | -1.0
COc1ccc(-c2nc3ccccn3c2NCc2ccc3c(c2)OCO3)cc1 | -10.7% | -0.6

Later entries
SMILES | MmCpn inh | Rango dissoc inh | CCT chaperon mod | Rango complex inh
CC1(C)CC(c2csc(N)n2)CCO1 (stereo unspecified) | -1.4%[15.4 µM] | -8.1% | -39.2* | 1.8%
O=S(=O)(c1cccnc1)N1CCCC(Nc2ccc(F)c(F)c2)C1 (stereo unspecified) | nt | nt | 1.3 | nt
CCOC(=O)CN1C(=O)S/C(=C/C=C/c2ccc(N(C)C)cc2)C1=O | -0.4% | 11.8% | 1.0 | 5.8µM*
CCOC(=O)CN1C(=O)S/C(=C/c2ccc3c(c2)n(C)c(=O)n3C)C1=O | -3.4% | 0.0% | -0.7 | -2.0%
Cc1ccc(C(CNS(=O)(=O)c2ccc(Cl)cc2)N2CCN(C)CC2)cc1 (stereo unspecified) | 1.3% | -10.7% | -3.9 | -0.6%
CC(C)C(=O)N1CCC1(C)C(=O)Nc1ccccc1OC(F)F (stereo unspecified) | nt | nt | -9.2 | nt
CCC(=O)Nc1sc2c(c1C(=O)OC)CCN(Cc1ccccc1)C2 | -1.6% | 41.1µM* | 0.7 | ?
COC(=O)c1c(NC(=O)C(C)C)sc2c1CCN(Cc1ccccc1)C2 | -1.8% | -23.5% | -2.9 | ?
CCOC(=O)C1CCN(C(=O)c2ccc3nc(-c4ccc(OC)cc4)c(-c4ccc(OC)cc4)nc3c2)CC1 | -16.1% | 16.4µM* | 1.5 | ?
Cc1cc(C(=O)OCC(=O)Nc2ccccc2C)c(C)o1 | 0.5% | 4.7% | 1.3 | 1.3%

Profiles, looked up by structure. Screens in order: MmCpn inh	Rango dissoc inh	CCT chaperon mod	Rango complex inh
CCOC(=O)CN1C(=O)S/C(=C/C=C/c2ccc(N(C)C)cc2)C1=O reads -0.4%	11.8%	1.0	5.8µM*
COC(=O)c1c(NC(=O)C(C)C)sc2c1CCN(Cc1ccccc1)C2 reads -1.8%	-23.5%	-2.9	?
Cc1ccc(C(CNS(=O)(=O)c2ccc(Cl)cc2)N2CCN(C)CC2)cc1 (stereo unspecified) reads 1.3%	-10.7%	-3.9	-0.6%
O=S(=O)(c1cccnc1)N1CCCC(Nc2ccc(F)c(F)c2)C1 (stereo unspecified) reads nt	nt	1.3	nt
CCC(=O)Nc1sc2c(c1C(=O)OC)CCN(Cc1ccccc1)C2 reads -1.6%	41.1µM*	0.7	?

Continued:
SMILES | MmCpn inh | Rango dissoc inh | CCT chaperon mod | Rango complex inh
Cc1cc(C(=O)OCC(=O)Nc2ccccc2Br)c(C)o1 | 1.1% | 7.4% | -53.4* | 0.0%
Cc1onc(-c2ccccc2)c1C(=O)Nc1ccccc1N1CCOCC1 | 1.4% | 5.5% | 0.6 | -0.8%
Cc1noc(C)c1C(=O)Nc1ccccc1N1CCOCC1 | -0.7% | 12.3% | -30.3* | 5.0%
CSc1nnc(NC(=O)c2ccc(S(=O)(=O)N3CCOCC3)cc2)s1 | -1.9% | 8.4% | -1.1 | 1.7%
NC(=O)CSc1nnc(NC(=O)c2ccc(S(=O)(=O)N3CCOCC3)cc2)s1 | 0.6% | -0.1% | -58.1* | -2.0%
CC12CCC(=O)N1C(C(=O)Nc1nc(-c3cc(F)ccc3F)cs1)CS2 (stereo unspecified) | -1.8% | -0.8% | 0.4 | -3.7%
